Measured values taken from BindingDB's records for doi:10.1021/jm00062a001 (Upjohn Laboratories, 1993).

Experiment: Binding affinity against 5-hydroxytryptamine 1A receptor from bovine hippocampus, used [3H]8-OH-DPAT as radioligand

Work on CCCN1CC[C@H]2c3c(O)cccc3CC[C@H]21 [(Recemic)3-Propyl-2,3,3a,4,5,9b-hexahydro-1H-benzo[e]indol-9-ol] yielded a Ki of 1.4 nM.
